Measured values reported in article doi:10.1101/2025.02.26.640323, “Aggregation-Dependent Epitope Sequence and Modification Fingerprints of Anti-Aβ Antibodies” (bioRxiv, 2025).
Entries after “also recorded” stand apart in the source; their conditions may differ.

What was measured:
[1] = system: Aβ(1–15, H6R) ([…]); experiment: Biolayer interferometry, H6R peptide; type: binding, human; settings: Aducanumabbs 10nM, NTA biosensor-loaded 6xHis peptide, PBS pH 7.4, 0.2% BSA, 0.02% Tween 20, 30 °C; vs wildtype
Method: (§1) Figure 2 – figure supplement 2. […] (a) Dot Blot from the purified 6xHis peptides […] and […] were printed using Slide Spotter robot.
The samples were dispensed into a 96 microplate (Greiner bio-one GmbH, Frickenhausen, Germany) at a final volume of 200 μL. […] The peptides were synthesized (purity above 98% - based on UV at 215nm) with Fmoc-Adoa linker (Iris - FAA1435) and C-terminal 6xHis tag. Sensorgrams were measured in double reference against the buffer and the reference sensor signals.
NTA biosensors (Sartorius, Göttingen, Germany) were preincubated into 1XPBS buffer pH 7.4, 0.2% BSA, 0.02% (v/v) Tween 20 for 10 min. A first baseline was established in the same buffer. The 6xHis peptides were loaded onto NTA biosensors at 20 μg/ml for 200 s. Following a buffer wash of 120s, the biosensors were incubated with serial-dilutions of the respective antibodies for 1200s s to measure association and then into buffer for additional 1500s to observe the dissociation phase. Experiments were performed at 30 °C and sample plates were shaken at 1000 rpm. Sensorgrams were globally fitted using Data Analysis software version 12.0.2.3 (Sartorius, Göttingen, Germany) with a 1:1 binding model.

[2] = system: endogenous soluble Aβ in pooled human CSF; experiment: IP-MS from pooled human CSF; type: binding; settings: 250 μL pooled human CSF, CHCA matrix; two replicate measurements each from two independent immunoprecipitations
Method: However, synthetic Aβ peptides may display different properties than authentic Aβ peptides in biological samples, such as human cerebrospinal fluid (CSF). […] To test whether Lecanemabbs was able to immunoprecipitate endogenous soluble Aβ from a relevant biological sample, we repeated the Lecanemabbs IP-MS experiment with 250 μL of pooled CSF. […] This was in contrast to the binding data from array and BLI towards the minimal monovalent epitopes (Figure 3 – figure supplement 2 and 3).
Antibodies were covalently coupled to Dynabeads M-270 Epoxy (Invitrogen/ThermoFisher Scientific, Waltham, Massachusetts, USA Cat. No. 14311 D), essentially following the manufacturer’s instructions. Tween-20 was omitted from all wash and storage buffers for specific use in IP-MS. In brief, 5 mg of M-270 epoxy beads were weighed into a 1.5-mL reaction vial and washed with 1 mL of buffer C1 (kit component). The bead suspension was divided in aliquots of 200 μL (containing 1mg of beads). The vials were placed on a magnetic stand for a few minutes, and the supernatant was carefully removed and discarded. […]
Analysis by MALDI-TOF-MS was essentially performed as described. […] The samples were dried in a vacuum desiccator and a total of 5000 mass spectra per spot were recorded using an ultrafleXtreme MALDI-TOF/TOF mass spectrometer in reflector mode operated under the software flexControl 3.4 (Bruker, Bremen, Germany).

[3] = system: Aβ1–15 H6R ([…]); experiment: Dot blot of purified 6xHis peptides; type: binding; settings: dot blot / on-chip titration, 2-fold dilutions of peptide, goat anti-human DL650 fluorescence, vs wildtype
Method: as §1
The purified peptides were printed onto white-coated CelluSpot blank slides using the Slide Spotter at a starting amount of 0.05 μg. The slides were allowed to dry for 3 hours and rinsed once with 1X PBS to remove the unbound peptides. […] The fluorescence signal readouts were acquired using Amersham Image Quant 800 (GE Healthcare) with an exposure time of 30 seconds and 4×4 binning.

[4] = system: synthetic Aβ peptide variants; experiment: Capillary isoelectric focusing (CIEF) immunoassay; type: binding; settings: data not shown
Method: Automated capillary isoelectric focusing immunoassays were performed with a Peggy-Sue system (ProteinSimple,San Jose, California, USA), essentially as previously described and [53].
In brief, synthetic Aβ peptide variants were separated by isoelectric focusing in microcapillaries followed by photochemical immobilization to the inner capillary walls and probing with the primary antibodies for 120 min. After 2 washes, the horseradish peroxidase conjugated secondary antibodies were loaded and incubated for 60 min. After two washing steps, a luminol/peroxide mix was loaded, and chemiluminescent signals were recorded. The data was analyzed with the Compass for SW software. The following secondary antibodies were used: Anti-human IgG Secondary HRP antibody (Protein Simple, catalog number 043–491), Goat-Anti-Mouse-HRP Secondary Antibody ProteinSimple, catalog number 040–655) and Peroxidase-conjugated Affini Pure Donkey Anti-Human IgG (H+L) (1:100 dilution) (Jackson ImmunoResearch Laboratories Inc., West Grove, PA, code number 709–035-149).

Substance: Aducanumabbs: human monoclonal, biosimilar of Aducanumab, Proteogenix (#PX-TA1335)
- BLI response for H6R [1]: completely abolished
- immunoprecipitation of endogenous Aβ from CSF [2]: but not Aducanumabbs immunoprecipitated authentic biological Aβ peptides from pooled human CSF; also recorded: did not produce any Aβ signals
- binding strength for H6R Aβ1–15 variant [3]: reduced binding strength of Aducanumabbs for the H6R Aβ1–15 variant
- reproducibility of signals, CIEF-immunoassay [4]: substantial variances
